The data set deals with THP-1 cells. Description: CCK-8 cell viability of THP-1 cells after 48 h compound treatment in HaCaT/THP-1 co-culture. The class given is cell-based, human. The following applies: for Cell viability: THP-1, individual replicate values. Here is the method: The co-culture system was set up according to the following described method. In brief, when the HaCaT cells reached 80–90% confluency, they were digested with 0.25% trypsin (Cytiva, Burlington, MA, USA), collected, and seeded into 96-well plates at a density of 10,000 cells per well for 24 h. THP-1 cells were collected, centrifuged, and re-suspended in fresh RPMI-1640 medium supplemented with 10% FBS at 2 × 10^6 cells/mL. Then cells are distributed into HaCaT-seeded 96 wells plate with 80 μL (1.6 × 10^5 cells/well).
The compounds listed in Table 1 were dissolved in DMSO to create stock solutions with a concentration of 500 mg/mL. Eleven concentrations were subsequently prepared using two-fold serial dilutions. These stock solutions were then further diluted 250-fold in RPMI-1640 + 10% FBS medium. Finally, 80 μL of the prepared solutions were added 1:1 to the treated 96-well plates and incubated for 48 h at 37 °C and 5% CO2.
After 48 h of treatment, the treated cells were collected 100 μL cells per well. The supernatant medium was added 10 μL of CCK-8 (Life-iLab, Shanghai, China) solution to each well and incubated the plate in the incubator for 2–4 h. THP-1 cell viability was determined using standard calculation methods.
The cytotoxicity of 15 test compounds listed in Table 1 was assessed using THP-1 cells across a concentration range of 1,000 to 3.9 μg/mL. Cell viability was assessed after 48 h of treatment using the CCK-8 assay.

Where “and” joins values, the source holds several entries; their conditions need not be identical. Equal entries are not always repeated.

Take Isoeugenol: the Cell viability (0.976563 μg/mL) was 86.2556% and 92.0075%; the Cell viability (1.95312 μg/mL) was 67.2105% and 60.8571%; the Cell viability (3.90625 μg/mL) was 70.594% and 61.9023%; the Cell viability (7.8125 μg/mL) was 66.1654% and 59.3534%; the Cell viability (15.625 μg/mL) is 55.3684% and 59.015%; the Cell viability (31.25 μg/mL) is 55.3985% and 58.8722%. Also, the Cell viability is 37.6165% and 43.6466% (62.5 μg/mL); 20.0376% and 20.4586% (125 μg/mL); 27.2181% and 25.4962% (250 μg/mL); 29.9098% and 23.2105% (500 μg/mL); 22.5338% and 25.6617% (1000 μg/mL). The “final concentration used (highest concentration that maintained at least 80% cell viability)” value (THP-1 cells, CCK-8, single (not double) concentration) stood at 1.95 µg/mL.

For the molecule `CC(C)CCCC(C)CCCC(C)CCCCC(C)CCCC(C)CCCC(C)C` (stereo not shown) [squalane, Squalane], the Cell viability (62.5 μg/mL) is recorded as 86.3429%.
